## AlphaSeq binding of Ab-14 heavy chain variants to a spike HR2 peptide

Target peptide (SARS-CoV-2 spike, HR2 region): PDVDLGDISGINAS

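This is the validation round: designs drawn from the data on random variants, tested in the same kind of assay. Their group label is 14H_En_Gen (En: ensemble of fine-tuned language models; Gen: genetic algorithm). Affinity was read by AlphaSeq, a pooled yeast mating assay with surface-displayed partners. Binding brings cells together so that they mate, and sequencing counts the barcode pairs among the diploids. A regression on co-assayed BCL2-family reference pairs converts the normalised counts of each replicate to an apparent Kd. The assay was run in six technical replicates.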

Ab-14 is the parent antibody, in scFv form: VH, then three GGGGS repeats, then VL. The light chain is unchanged in all variants.
VH: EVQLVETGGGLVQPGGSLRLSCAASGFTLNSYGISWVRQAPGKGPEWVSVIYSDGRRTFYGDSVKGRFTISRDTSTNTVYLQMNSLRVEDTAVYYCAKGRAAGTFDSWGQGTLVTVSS
VL: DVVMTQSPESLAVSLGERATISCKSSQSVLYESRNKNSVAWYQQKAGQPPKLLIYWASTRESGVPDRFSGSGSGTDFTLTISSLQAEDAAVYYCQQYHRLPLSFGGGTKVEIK

Each variant is given by its three heavy chain CDRs, as the data file delimits them; those of the parent are GFTLNSYGIS, VIYSDGRRTFYGDSVK, GRAAGTFDS.
The read-out is the apparent dissociation constant on a log10 scale (nM): the lower, the stronger.
Where no diploid with the target was found in that replicate, the entry reads "nd": below detection, most likely a poor binder, though not proof of it.
Values of this round are not directly comparable with the first-round values of the same sequences.
Empty control strains, which show no peptide, gave a signal in 1% of pairings with all heavy chain designs; the median was 2.08 and 95% of these signals were weaker than 0.84. No background was subtracted. The control count says in how many pairings with the empty strains this scFv gave a signal, with their mean in brackets.
Of ten entries with the parent sequence, four were seen in most replicates (averages 0.34 to 2.37), three in one and three in none, so single entries are noisy.
The authors averaged sequences with at least three values out of six and counted those with two or fewer as poor binders.

CDR-H1 | CDR-H2 | CDR-H3 | replicates, log10 nM | control signals
GFDLNEYGIS | VIYADGQRTAYADSVK | GNQAGTFDL | 0.01 -0.10 0.39 -0.15 -0.08 -0.21 | 0 of 18
GFDLNEYGIS | VIYADGMRTVYSDSVK | GENAGTFDL | 0.79 0.94 0.67 0.36 1.20 0.72 | 0 of 18
GFDLDEYGIS | VIYADGKRTAYSDSVK | GEVAGTFDL | 0.15 -0.61 -0.33 -0.26 -0.45 -0.29 | 2 of 18 (1.85)
GFDLNEYGIS | VIYADGMRTAYSDDVK | GQVAGTFDV | 0.11 -0.43 -0.02 -0.66 -0.36 -0.17 | 0 of 18
GFDLNEYGIS | VIYADGRRTAYADDVK | GTNAGTFDV | -0.64 -0.70 -1.22 -1.10 -0.75 -0.53 | 0 of 18
GFDLDEYGIS | VIYADGRRTAYADDVK | GEVAGTFDT | -0.26 0.26 0.25 -0.83 0.02 -0.22 | 0 of 18
GFDLNEYGIS | VIYADGSRTAYADSVK | GENAGTFDI | nd nd nd nd nd nd | 0 of 18
GFDLDEYGIS | VIYADGMRTAYADDVK | GNTAGTFDL | -0.12 0.43 -0.72 -0.69 -0.25 -0.32 | 0 of 18
GFDLDEYGIS | VIYADGMRKFYADSVK | GNVAGTFDV | -0.14 -0.08 -0.34 -0.33 -0.80 -0.06 | 0 of 18
GFDLNEYGIS | VIYADGQRTAYSDSVK | GNVAGTFDI | -0.27 -0.66 -0.66 -0.77 -0.44 -0.64 | 0 of 18
GFDLNEYGIS | VIYADGMRTAYADSVK | GENAGTFNV | 0.35 -0.36 -0.07 -0.49 -0.39 0.14 | 0 of 18
GFDLNEYGIS | VIYADGMRTAYADSVK | GDNAGTFDI | -0.25 -0.07 0.08 0.37 -0.24 0.08 | 0 of 18
GFDLNEYGIS | VIYADGQRTAYSDSVK | GEVAGTFDM | 0.16 0.23 0.06 -0.04 -0.21 0.19 | 0 of 18
GFDLDEYGIS | VIYADGQRKAYADSVK | GEVAGTFDV | 0.03 -0.06 -0.05 -0.14 -0.11 0.07 | 0 of 18
GFNLNEYGIS | VIYADGMRTAYADSVK | GEVAGTFDV | 0.46 0.52 0.15 nd 1.96 0.04 | 0 of 18
GFDLNEYGIS | VIYADGVRTAYTDSVK | GQNAGTFDV | -0.44 -0.38 -0.34 -1.01 -0.56 -0.79 | 1 of 18 (1.30)
GFDLNEYGIS | VIYADGMRTAYVDSVK | GNQAGTFDM | -0.41 -1.25 -0.65 nd -0.99 -0.33 | 0 of 18
GFDLDEYGIS | VIYADGMRTAYTDSVK | GNVAGTFDQ | -0.62 -0.63 -0.38 -0.78 -0.38 -0.17 | 0 of 18
GFDLNEYGIS | VIYADGKRTVYADSVK | GNVAGTFDV | -1.12 0.62 -1.73 -1.25 -0.84 -1.07 | 0 of 18
GFDLNEYGIS | VIYADGVRQAYADSVK | GNVAGTFDQ | -0.77 -0.71 -0.70 -1.05 -0.98 -0.84 | 0 of 18
GFDLNEYGIS | VIYADGQRTAYADSVK | GHNAGTFDV | -0.81 -0.39 -0.59 -0.59 -0.71 -0.58 | 0 of 18
GFDLNEYGIS | VIYADGVRTAYSDKVK | GNNAGTFDV | -0.60 -0.36 -0.50 -0.53 -0.61 -0.49 | 0 of 18
GFDLNEYGIS | VIYADGMRTAYVDSVK | GNNAGTFDQ | -0.44 -0.08 -0.65 -0.40 -0.35 -0.34 | 0 of 18
GFDLNEYGIS | VIYADGMRTAYSDDVK | GENAGTFDM | 0.01 -0.06 -0.48 -0.35 -0.31 0.13 | 0 of 18
GFDINEYGIS | VIYADGMRTAYSDSVK | GENAGTFDV | -0.35 -0.15 -0.60 -0.17 -0.61 -0.35 | 1 of 18 (1.51)
GFDLNEYGIS | VIYADGVRTAYTDDVK | GNVAGTFDV | -0.61 -0.81 -0.60 -0.99 -0.73 -0.58 | 0 of 18
GFDLEDYGIS | VIYADGMRTAYADSVK | GNQAGTFDL | 0.25 0.08 -0.04 0.31 -0.06 0.27 | 0 of 18
GFDLNEYGIS | VIYADGKRTAYSDSVK | GQNAGTFDV | -0.26 -0.39 -0.54 -0.62 -0.61 -0.33 | 0 of 18
GFDLEEYGIS | VIYADGRRTAYADDVK | GNVAGTFDV | -0.44 -0.54 -0.30 -0.86 -0.44 -0.75 | 0 of 18
GFDLNEYGIS | VIYADGVRTSYVDSVK | GNVAGTFDV | 0.02 -0.39 -0.45 -0.54 -0.34 -0.36 | 1 of 18 (2.61)
GFDLNEYGIS | VIYADGKRTAYADSVK | GNNAGTFDQ | -0.01 0.30 0.33 -0.07 0.60 -0.02 | 0 of 18

From the AlphaSeq antibody data of Li et al. 2023 (doi:10.1038/s41467-023-39022-2), copy in the FLAb collection.